# In patent US12226414B2, “1-isopropyl-3-methyl-8-(pyridin-3-yl)-1,3-dihydro-2H-imidazo[4,5-c] cinnolin-2-one as selective modulators of ataxia telangiectasia mutated (ATM) kinase and uses thereof” (SUZHOU ZANRONG PHARMA LIMITED, priority 2018, dated 2025):
# By UniProt entry, the sequences of proteins in these tests, tags left out. Where a name states a change or a piece, a line headed by the entry shows the natural chain unless it says otherwise.
# UniProt Q06278: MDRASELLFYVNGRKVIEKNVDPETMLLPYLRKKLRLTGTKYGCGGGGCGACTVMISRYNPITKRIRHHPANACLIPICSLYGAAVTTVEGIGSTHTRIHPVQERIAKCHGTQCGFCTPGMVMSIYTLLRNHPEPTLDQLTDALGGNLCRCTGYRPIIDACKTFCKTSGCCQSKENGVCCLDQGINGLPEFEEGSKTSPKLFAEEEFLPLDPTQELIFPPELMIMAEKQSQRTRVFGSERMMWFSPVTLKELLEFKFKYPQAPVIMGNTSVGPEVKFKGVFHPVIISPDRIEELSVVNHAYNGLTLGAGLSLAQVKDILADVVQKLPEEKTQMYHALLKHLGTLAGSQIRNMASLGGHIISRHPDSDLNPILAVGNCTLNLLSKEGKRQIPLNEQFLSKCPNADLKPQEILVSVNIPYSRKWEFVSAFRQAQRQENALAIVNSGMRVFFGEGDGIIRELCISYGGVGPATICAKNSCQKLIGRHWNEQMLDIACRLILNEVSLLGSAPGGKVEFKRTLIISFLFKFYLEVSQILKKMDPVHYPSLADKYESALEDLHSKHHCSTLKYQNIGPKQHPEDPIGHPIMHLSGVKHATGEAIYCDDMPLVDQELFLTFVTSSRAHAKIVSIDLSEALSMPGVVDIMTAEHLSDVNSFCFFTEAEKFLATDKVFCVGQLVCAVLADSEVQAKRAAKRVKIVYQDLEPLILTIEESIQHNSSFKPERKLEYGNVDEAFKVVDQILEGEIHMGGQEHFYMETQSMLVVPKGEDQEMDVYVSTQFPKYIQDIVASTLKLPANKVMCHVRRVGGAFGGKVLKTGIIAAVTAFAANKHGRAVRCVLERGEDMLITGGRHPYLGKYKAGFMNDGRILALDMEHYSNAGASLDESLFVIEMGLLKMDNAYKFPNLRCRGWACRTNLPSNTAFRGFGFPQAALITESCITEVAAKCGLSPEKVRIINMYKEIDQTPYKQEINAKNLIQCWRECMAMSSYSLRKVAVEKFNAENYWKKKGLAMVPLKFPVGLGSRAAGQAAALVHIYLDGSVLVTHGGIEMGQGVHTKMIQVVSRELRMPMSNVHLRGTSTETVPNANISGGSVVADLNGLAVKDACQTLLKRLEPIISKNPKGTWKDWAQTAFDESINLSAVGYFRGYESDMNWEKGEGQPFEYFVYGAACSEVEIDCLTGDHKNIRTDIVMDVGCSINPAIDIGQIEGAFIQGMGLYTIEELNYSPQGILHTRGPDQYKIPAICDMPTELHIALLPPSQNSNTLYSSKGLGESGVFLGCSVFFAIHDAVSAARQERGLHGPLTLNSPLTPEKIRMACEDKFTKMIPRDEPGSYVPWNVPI
# UniProt P08183, whole entry: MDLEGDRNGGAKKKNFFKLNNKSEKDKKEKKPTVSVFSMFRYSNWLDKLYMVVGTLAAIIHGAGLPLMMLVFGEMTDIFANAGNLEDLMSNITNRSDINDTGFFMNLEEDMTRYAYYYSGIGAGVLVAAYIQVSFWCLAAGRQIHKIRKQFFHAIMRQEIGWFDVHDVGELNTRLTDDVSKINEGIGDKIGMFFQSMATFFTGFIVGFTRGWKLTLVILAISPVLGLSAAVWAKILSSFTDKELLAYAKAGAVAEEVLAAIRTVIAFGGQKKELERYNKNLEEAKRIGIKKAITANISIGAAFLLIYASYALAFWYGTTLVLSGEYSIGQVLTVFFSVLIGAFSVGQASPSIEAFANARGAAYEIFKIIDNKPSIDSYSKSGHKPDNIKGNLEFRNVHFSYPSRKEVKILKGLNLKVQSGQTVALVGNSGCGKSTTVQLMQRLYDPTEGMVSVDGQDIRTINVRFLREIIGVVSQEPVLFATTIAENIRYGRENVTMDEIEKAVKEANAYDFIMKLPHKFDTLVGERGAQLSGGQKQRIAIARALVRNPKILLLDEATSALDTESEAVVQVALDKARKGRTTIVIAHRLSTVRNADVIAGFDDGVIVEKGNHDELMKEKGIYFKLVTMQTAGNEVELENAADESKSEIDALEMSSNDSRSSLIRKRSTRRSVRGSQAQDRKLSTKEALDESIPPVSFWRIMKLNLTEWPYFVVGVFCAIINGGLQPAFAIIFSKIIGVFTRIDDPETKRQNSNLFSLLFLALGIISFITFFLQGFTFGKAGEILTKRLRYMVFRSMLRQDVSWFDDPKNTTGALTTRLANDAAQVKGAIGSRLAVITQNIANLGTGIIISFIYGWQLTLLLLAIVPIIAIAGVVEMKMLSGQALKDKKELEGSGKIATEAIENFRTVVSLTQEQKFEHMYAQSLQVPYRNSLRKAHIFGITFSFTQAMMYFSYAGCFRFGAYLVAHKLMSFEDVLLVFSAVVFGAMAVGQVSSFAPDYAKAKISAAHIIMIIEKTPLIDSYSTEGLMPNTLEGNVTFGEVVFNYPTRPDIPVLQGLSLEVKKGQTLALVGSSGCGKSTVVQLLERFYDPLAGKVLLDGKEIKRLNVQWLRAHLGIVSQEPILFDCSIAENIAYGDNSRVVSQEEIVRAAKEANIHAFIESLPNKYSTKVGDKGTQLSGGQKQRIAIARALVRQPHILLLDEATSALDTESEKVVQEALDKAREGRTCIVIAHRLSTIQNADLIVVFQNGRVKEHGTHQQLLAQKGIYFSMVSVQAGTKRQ
# Key:
# aldehyde oxidase (AO) = aldehyde oxidase (AO) (Homo sapiens (Human), UniProt Q06278); assay: Aldehyde oxidase assay in human liver cytosol
# P-glycoprotein (Pgp) = P-glycoprotein (Pgp) (Homo sapiens (Human), UniProt P08183); assay: MDCK-MDR1 Pgp assessment
smiles,measurement,setting,value
"CN(C)CCCOc1ccc(-c2ccc3ncc4c(c3c2)n(C2CCOCC2)c(=O)n4C)cn1 [Ref. Comp. 2, AZD0156]",AO substrate (in words),aldehyde oxidase (AO),strong AO substrates
same,Pgp substrate (in words),P-glycoprotein (Pgp),a Pgp substrate
